In US20040176285A1, “Tip39 polypeptides” (priority 2001, published 2004):

Legend:
endogenous PTH1R = target: T1, endogenous PTH1R (Homo sapiens, UniProt Q03431); experiment: Ligand-stimulated cAMP accumulation in SaOS-2 cells; format: cell-based; conditions: mean±SE
T1 construct: SaOS-2 cells expressing the wild-type PTH1R endogenously; endogenous in cells; host or cells: SaOS-2 human osteosarcoma cells
T1 sequence (Q03431 27-593): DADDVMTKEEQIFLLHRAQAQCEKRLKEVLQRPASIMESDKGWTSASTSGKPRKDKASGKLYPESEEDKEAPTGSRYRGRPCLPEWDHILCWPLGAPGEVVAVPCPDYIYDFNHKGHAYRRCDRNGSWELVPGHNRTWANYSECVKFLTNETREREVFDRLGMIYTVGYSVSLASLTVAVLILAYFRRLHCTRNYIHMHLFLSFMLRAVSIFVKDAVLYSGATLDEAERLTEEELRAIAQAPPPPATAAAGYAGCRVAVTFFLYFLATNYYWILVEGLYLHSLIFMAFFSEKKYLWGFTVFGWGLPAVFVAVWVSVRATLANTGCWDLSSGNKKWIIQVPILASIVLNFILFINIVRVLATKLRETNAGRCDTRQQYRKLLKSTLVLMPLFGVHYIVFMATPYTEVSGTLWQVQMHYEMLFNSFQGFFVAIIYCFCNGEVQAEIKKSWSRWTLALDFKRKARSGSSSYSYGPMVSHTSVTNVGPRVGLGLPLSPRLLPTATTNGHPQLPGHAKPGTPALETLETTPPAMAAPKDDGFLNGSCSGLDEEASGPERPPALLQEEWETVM
Method: (§1) DMEM, Trypsin/EDTA, and penicillin G/streptomycin and horse serum were from Gibco/BRL, Life Technologies, Gaithersburg, Md. LLC-PK, expressing the recombinant human PTH1R (HKrk-B7 cells) and SaOS-2 cells expressing the wild-type PTH1R endogenously were cultured in DMEM supplemented with 10% heat-inactivated fetal bovine serum, 100 U/ml penicillin, 100 μg/ml streptomycin, as previously described (Gardella, T. J., et al., J. Biol. Chem. 271:19888-19893 (1996); Fukayama, S., et al., Endocrinology 134:1851-1858 (1994)); both cell lines were maintained in a humidified atmosphere containing 95% air and 5% CO2. After seeding, medium was replaced daily, until cells were used for radioligand binding or cAMP accumulation assays.
(§2) Na^125I (specific activity: 2,000 Ci/mmol) was purchased from DuPont/NEN, Boston, Mass. Fetal bovine serum, 3-isobutyl-1-methyl-xanthine (IBMX), and BSA were from Sigma, St. Louis, Mo., and trifluoroacetic acid (TFA) was from Pierce, Rockford, Ill. […] The entire lysate was counted for γ-irradiation. Specific binding was determined after subtracting radioactivity bound in the presence of maximal concentrations of unlabeled competing peptide (10^−6 M). […] Data were analyzed and graphically illustrated using the graph-pad prism software package. […]

PTH1R = target: T2, PTH1R (Homo sapiens, UniProt Q03431); experiment: Ligand-stimulated cAMP accumulation in HKrk-B7 cells; format: cell-based; design: expressed in transfected cells; conditions: maximal cAMP accumulation; mean±SE
T2 sequence (Q03431 27-593): T1 sequence (Q03431 27-593)
Method: as §1, §2

Which EC50 (endogenous PTH1R; cAMP accumulation) does the source give for `CC[C@H](C)[C@H](NC(=O)[C@H](CCC(=O)O)NC(=O)[C@H](CO)NC(=O)[C@@H](NC(=O)[C@@H](N)CO)C(C)C)C(=O)N[C@@H](CCC(N)=O)C(=O)N[C@@H](CC(C)C)C(=O)N[C@@H](CCSC)C(=O)N[C@@H](Cc1c[nH]cn1)C(=O)N[C@@H](CC(N)=O)C(=O)N[C@@H](CC(C)C)C(=O)NCC(=O)N[C@@H](CCCCN)C(=O)N[C@@H](Cc1c[nH]cn1)C(=O)N[C@@H](CC(C)C)C(=O)N[C@@H](CC(N)=O)C(=O)N[C@@H](CO)C(=O)N[C@@H](CCSC)C(=O)N[C@@H](CCC(=O)O)C(=O)N[C@@H](CCCNC(=N)N)C(=O)N[C@H](C(=O)N[C@@H](CCC(=O)O)C(=O)N[C@@H](Cc1c[nH]c2ccccc12)C(=O)N[C@@H](CC(C)C)C(=O)N[C@@H](CCCNC(=N)N)C(=O)N[C@@H](CCCCN)C(=O)N[C@@H](CCCCN)C(=O)N[C@@H](CC(C)C)C(=O)N[C@@H](CCC(N)=O)C(=O)N[C@@H](CC(=O)O)C(=O)N[C@H](C(=O)N[C@@H](Cc1c[nH]cn1)C(=O)N[C@@H](CC(N)=O)C(=O)N[C@@H](Cc1ccc(O)cc1)C(N)=O)C(C)C)C(C)C` [[Tyr^34]PTH(1-34), [Tyr^34] human PTH(1-34)amide] here?
The EC50 was 300 ± 120 pM.

What about the “SaOS-2 Maxobs” value (endogenous PTH1R; maximal cAMP accumulation) of the same compound?
The value was 32 ± 5 pmol/48-well.

And the “HKrk-B7 Maxobs” value (PTH1R)?
The value was 42 ± 7 pmol/48-well.
